# AlphaSeq binding of Ab-14 heavy chain variants to a spike HR2 peptide

Source: Engelhart et al. 2022 (doi:10.1038/s41597-022-01779-4), MIT Lincoln Laboratory and A-Alpha Bio; data file from the FLAb repository.

Target peptide (SARS-CoV-2 spike, HR2 region): PDVDLGDISGINAS

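The parent was found by panning a naive human phage display library on the peptide. AAYL49 was designed without a model: most single CDR substitutions and a random sample of double and triple ones. In AlphaSeq, yeast of one mating type display the scFv and yeast of the other type display the target. Binding brings cells together so that they mate, and sequencing counts the barcode pairs among the diploids. Scores were corrected for input abundance and mapped to Kd with protein pairs of known affinity run in the same pool. The assay was run in three technical replicates.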

Parent scFv Ab-14: VH joined to VL by a (GGGGS)3 linker. Changes lie in the heavy chain CDRs alone.
VH: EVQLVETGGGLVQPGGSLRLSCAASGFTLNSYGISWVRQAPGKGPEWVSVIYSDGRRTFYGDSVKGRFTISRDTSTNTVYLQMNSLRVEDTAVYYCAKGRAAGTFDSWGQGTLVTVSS
VL: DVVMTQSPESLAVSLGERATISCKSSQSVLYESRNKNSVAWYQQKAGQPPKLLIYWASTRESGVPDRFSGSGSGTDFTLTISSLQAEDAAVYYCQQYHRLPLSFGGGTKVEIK

Positions count from residue 1 of the parent VH; V64F puts F in place of V. The read-out is the apparent dissociation constant on a log10 scale (nM): the lower, the stronger. A pair that was not seen in that replicate is written "nd"; this usually means weak binding, but a binder can also be missed. For reference, the parent read 0.65 as the reference entry and 4.11 (one replicate of three) as a member of this library. Three control strains display no target. For library AAYL49, 15% of the pairings with them gave a signal, with a median of 4.06 and one signal in twenty below 2.83, so weak values seen in few replicates may be background. The control count says in how many pairings with the empty strains this scFv gave a signal, with their mean in brackets.

changes | log10 Kd (nM) by replicate | signal with controls
V64F/R100N/G103A | 1.86 / 2.16 / 2.30 | 1 of 9 (4.20)
V50Q/Y60V/A101L | nd / nd / nd | 0 of 9
I34E/S53I/S107M | nd / nd / nd | 5 of 9 (4.63)
R56M/G61Y | 3.24 / 3.13 / 2.58 | 0 of 9
D54A/R56T/F59H | nd / nd / nd | 0 of 9
V50F/T58D/S107K | nd / 5.58 / nd | 3 of 9 (3.70)
I51R/R57H/D106W | nd / nd / 4.59 | 1 of 9 (3.21)
F27Y/D54S/D106H | 5.23 / 4.31 / 5.38 | 6 of 9 (4.24)
R56V/V64N/R100G | nd / nd / nd | 0 of 9
Y52F/G61V | 1.24 / 1.32 / 1.85 | 0 of 9
N30G/S53R/T58K | nd / 4.76 / nd | 1 of 9 (4.37)
Y60F/K65W/R100G | nd / nd / nd | 2 of 9 (3.91)
F27M/S107G | nd / 2.85 / nd | 0 of 9
S35Q/T58W/A101R | nd / nd / nd | 0 of 9
D62F/T104A | nd / nd / nd | 1 of 9 (3.20)
S35T/V50G/S107R | nd / nd / nd | 0 of 9
T28S/A101I/G103N | nd / nd / 4.73 | 4 of 9 (4.10)
T58K/Y60N/G99Q | nd / nd / nd | 2 of 9 (4.06)
G26S/F27W/Y52I | nd / nd / nd | 1 of 9 (4.01)
G26E/N30A/I34L | 4.46 / 4.70 / 4.21 | 2 of 9 (3.73)
V50P/F105R/S107L | nd / 4.75 / nd | 0 of 9
D54H/S63H/G99L | nd / nd / nd | 1 of 9 (3.43)
S53Y/G61D/S107F | nd / nd / nd | 0 of 9
T28H/G61P/A101M | 1.32 / 1.14 / 1.38 | 0 of 9
D54H/R56M/Y60W | nd / nd / nd | 0 of 9
S31E/V50D | nd / 3.23 / nd | 3 of 9 (3.85)
V64M/G103A | nd / nd / nd | 0 of 9
V50Y/S107D | nd / nd / nd | 0 of 9
S31V/Y52N/S53W | nd / 3.14 / 5.20 | 1 of 9 (2.64)
Y32E/S35K/V50E | nd / nd / nd | 0 of 9
I51K/R56E/D106H | nd / 4.01 / nd | 3 of 9 (4.31)
V50T/I51M/T104C | nd / nd / nd | 1 of 9 (2.87)
S31T/R57D/A101L | 3.40 / 2.98 / 5.58 | 0 of 9
V50E/F105R | nd / nd / nd | 0 of 9
I34H/S63N/D106Y | nd / nd / 5.23 | 4 of 9 (4.29)
F27C/R100M/S107L | nd / nd / nd | 2 of 9 (3.75)
G33E/S35E/D106R | 4.04 / 3.91 / 4.01 | 7 of 9 (4.00)
L29I/V50D | nd / nd / nd | 0 of 9
D54K/R57N/F105M | nd / nd / nd | 0 of 9
I34L/S63Q/V64W | nd / nd / nd | 0 of 9
L29P/S35W/K65P | nd / 3.76 / nd | 0 of 9
G61M/S63Q/S107P | 0.46 / 0.62 / 0.35 | 1 of 9 (3.49)
F59V/K65N/G99A | nd / nd / nd | 2 of 9 (4.54)
L29M/G33M/R100Y | nd / nd / nd | 1 of 9 (3.28)
D54K/K65L/T104G | 3.33 / 4.98 / 5.63 | 0 of 9
G33D/V50W/F59H | nd / 4.27 / nd | 2 of 9 (3.37)
L29C/G55E/Y60T | nd / 3.34 / nd | 0 of 9
Y32T/I34C/Y60E | 6.32 / nd / nd | 1 of 9 (5.14)
I51H/S53N/R100Q | nd / nd / nd | 0 of 9
G26N/L29W/D62W | nd / nd / nd | 2 of 9 (2.48)

The 3 strongest on average among those seen in every replicate, once more:

changes,log10 Kd (nM) by replicate,signal with controls
G61M/S63Q/S107P,0.46 / 0.62 / 0.35,1 of 9 (3.49)
T28H/G61P/A101M,1.32 / 1.14 / 1.38,0 of 9
Y52F/G61V,1.24 / 1.32 / 1.85,0 of 9